Assay results published in ChEMBL document CHEMBL4364283 (J Med Chem, 2019).

By UniProt entry, the sequences of proteins in these tests, tags left out.
UniProt O00255, whole entry: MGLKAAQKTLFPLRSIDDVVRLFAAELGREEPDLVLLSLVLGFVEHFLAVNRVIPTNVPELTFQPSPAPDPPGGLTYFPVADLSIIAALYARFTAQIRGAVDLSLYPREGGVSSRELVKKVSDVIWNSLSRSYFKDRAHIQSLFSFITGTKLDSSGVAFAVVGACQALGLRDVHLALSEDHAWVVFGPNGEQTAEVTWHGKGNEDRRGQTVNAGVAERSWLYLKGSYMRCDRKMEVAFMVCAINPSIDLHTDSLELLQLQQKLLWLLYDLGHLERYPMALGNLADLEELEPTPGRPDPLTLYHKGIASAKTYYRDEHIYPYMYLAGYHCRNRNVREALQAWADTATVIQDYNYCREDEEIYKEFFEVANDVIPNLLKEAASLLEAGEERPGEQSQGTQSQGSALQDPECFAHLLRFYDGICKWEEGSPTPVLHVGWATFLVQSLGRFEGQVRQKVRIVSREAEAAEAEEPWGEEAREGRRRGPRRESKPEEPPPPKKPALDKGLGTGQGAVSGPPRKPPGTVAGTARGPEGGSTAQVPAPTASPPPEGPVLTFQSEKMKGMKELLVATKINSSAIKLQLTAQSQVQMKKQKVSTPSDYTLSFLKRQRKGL

Target: Menin (Homo sapiens, UniProt O00255)
Experiment: Inhibition of FAM-probe binding to Menin (unknown origin) after 60 mins by fluorescence polarization competitive binding assay

SMILES: N#Cc1ccc(OCCCN2CCC(C3(C4CCCC4)NCCc4ccccc43)CC2)cc1 (stereo unspecified)
- Ki: 22 nM
